Molecular target: T1, Tyrosine-protein phosphatase non-receptor type 1 [1-298] (Homo sapiens, UniProt P18031)
T1 construct: 1-298
T1 sequence (P18031 whole entry): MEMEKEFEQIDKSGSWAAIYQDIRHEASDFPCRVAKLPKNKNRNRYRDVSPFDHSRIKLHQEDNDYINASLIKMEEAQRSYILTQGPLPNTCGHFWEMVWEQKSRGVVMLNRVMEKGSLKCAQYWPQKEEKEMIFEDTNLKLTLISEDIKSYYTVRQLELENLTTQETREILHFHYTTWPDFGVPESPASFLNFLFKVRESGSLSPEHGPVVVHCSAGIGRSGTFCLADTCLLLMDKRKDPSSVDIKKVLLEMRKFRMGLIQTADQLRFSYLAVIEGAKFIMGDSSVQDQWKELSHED
Experiment: PTP1B and TCPTP Inhibition Assay
Settings: pH 7.5; 22 °C

Row | Ki | SMILES
1 | 0.022 µM | CC(=O)N[C@@H](Cc1ccc(N(C(=O)C(=O)O)c2ccccc2C(=O)O)c2ccccc12)C(=O)NCCCCCOc1cc2ccccc2cc1C(=O)O [3-({5-[(N-Acetyl-3-{4-[(carboxycarbonyl)(2-carboxyphenyl)amino]-1-naphthyl}-L-alanyl)amino]pentyl}oxy)-2-naphthoic Acid]
2 | 39 µM | O=C(O)C(=O)N(c1ccccc1C(=O)O)c1cccc2ccccc12 [2-(Naphthalen-1-yloxalylamino)benzoic Acid]
